Laboratory results from PubChem BioAssay AID1385 (PCMD, 2008).
The entries are a selection whose mix differs from that of the whole data set. Some structures show a salt or complex split into parts, the way the source records it. Activity calls are given as the source filed them.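 How the source made its calls: active means inhibition above 40% at the single screening dose; inactive means the rest.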

Sequences of proteins named here, by UniProt entry; tags and fusion partners are left off.
UniProt Q06609, whole entry: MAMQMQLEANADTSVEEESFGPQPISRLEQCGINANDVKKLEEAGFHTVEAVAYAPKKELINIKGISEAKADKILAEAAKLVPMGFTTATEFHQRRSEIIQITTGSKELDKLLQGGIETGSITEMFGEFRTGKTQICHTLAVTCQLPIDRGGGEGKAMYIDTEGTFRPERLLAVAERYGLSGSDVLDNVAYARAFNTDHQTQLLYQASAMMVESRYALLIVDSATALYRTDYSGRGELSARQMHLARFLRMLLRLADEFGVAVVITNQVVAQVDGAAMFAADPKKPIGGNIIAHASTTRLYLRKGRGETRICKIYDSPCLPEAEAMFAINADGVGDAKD

These compounds were tested against DNA repair protein RAD51 homolog 1 (Homo sapiens) (UniProt Q06609) (assay: blockers of RAD51-mediated homologous recombination – biochemical, fluorescence, primary screen (AID 1385;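 further: 0% = DMSO control wells and 100% = blanks with heterologous ssDNA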)). Settings: hRad51 DNA strand exchange, fluorescence dequenching; at 10 µM; active compounds read high.
With `CC(C)c1ccc(OP(C)(=O)Nc2ccc(SC(F)(F)F)cc2)cc1` (configuration not stated) the inhibition was inactive: 0.87%. In the case of `CP(=O)(Nc1ccccc1F)Oc1ccccc1` (configuration not stated), the inhibition is reported as inactive: -0.17%. In the case of `COc1ccc2c(c1O)-c1c(O)c(OC)cc3c1[C@H](C2)[N+](C)(C)CC3.O=[N+]([O-])c1cc([N+](=O)[O-])c([O-])c([N+](=O)[O-])c1[O-]`, the inhibition is reported as inactive: -0.58%. For `O=C(OC1CN2CCC1CC2)c1ccc([N+](=O)[O-])cc1` (configuration not stated), the inhibition was inactive: -6.24%. For `COc1ccc(OP(C)(=O)Nc2ccc(SC(F)(F)F)cc2)cc1` (configuration not stated), the inhibition was inactive: 0.14%. For `CCCCCOc1ccc(NP(C)(=O)Oc2ccc(Cl)cc2Cl)cc1` (configuration not stated), the inhibition was inactive: -15.7%. With `CP(=O)(Nc1ccccc1)Oc1ccc(F)cc1` (configuration not stated) the inhibition was inactive: -1.81%. For `CCN(CC)CCCOC(=O)C(O)(c1ccccc1)C1CCCCC1` (configuration not stated), the inhibition was inactive: -9%. With `CN(C)CCOC(=O)C(O)(c1ccccc1)C1CCCCC1` (configuration not stated) the inhibition was inactive: -1.15%. In the case of `COc1ccc(OP(C)(=O)Nc2cccc(Br)c2)cc1` (configuration not stated), the inhibition is reported as inactive: 5.86%. `O=[N+]([O-])c1cc([N+](=O)[O-])c(NCC2CCS(=O)(=O)C2)c([N+](=O)[O-])c1` (configuration not stated) was tested, and the inhibition was inactive: 5.67%. In the case of `Cc1cc(-c2cccc3ccccc23)c(C)cn1.O=[N+]([O-])c1cc([N+](=O)[O-])c(O)c([N+](=O)[O-])c1`, the inhibition is reported as inactive: 5.08%. In the case of `O=[N+]([O-])c1ccc(OP2(=O)COCCO2)cc1` (configuration not stated), the inhibition is reported as inactive: -3.46%. With `CCOP(C)(=S)SCC(=O)NC(C)(CC)C(=O)O` (configuration not stated) the inhibition was inactive: -0.52%. With `CP(=O)(Nc1ccc(SC(F)(F)F)cc1)Oc1ccc(F)cc1` (configuration not stated) the inhibition was inactive: -0.63%. For `Cc1ccccc1NP(C)(=O)Nc1ccccc1C`, the inhibition was inactive: 2.01%. `CP(=O)(Nc1ccc2c(c1)OCCO2)Oc1ccccc1` (configuration not stated) was tested, and the inhibition was inactive: -1.06%. In the case of `CP(=O)(Oc1ccccc1)N1CCOC1=O` (configuration not stated), the inhibition is reported as inactive: 4.33%. `CCc1ccc(OP(C)(=O)Nc2cccnc2)cc1` (configuration not stated) was tested, and the inhibition was inactive: 3.13%. In the case of `COc1ccccc1OP(C)(=O)Nc1c(C)n(C)n(-c2ccccc2)c1=O` (configuration not stated), the inhibition is reported as inactive: -9.14%. `O=C(OCCCN1CCCC1)C(O)(c1ccccc1)C1CCCCC1` (configuration not stated) was tested, and the inhibition was inactive: -21.7%. For `CCN(CC)CC(O)COC(=O)C(O)(c1ccccc1)C1CCCCC1` (configuration not stated), the inhibition was inactive: 3.83%. `COc1ccc(OP(C)(=O)Nc2ccc(Br)cc2)cc1` (configuration not stated) was tested, and the inhibition was inactive: -2.51%. With `CN(C)C(=O)c1c([N+](=O)[O-])cc([N+](=O)[O-])cc1[N+](=O)[O-]` the inhibition was inactive: 7.49%. With `CP(=O)(Nc1ccc(Cl)cc1)Oc1ccc(F)cc1` (configuration not stated) the inhibition was inactive: -2.93%. In the case of `COc1ccccc1OP(C)(=O)Nc1ccccc1Br` (configuration not stated), the inhibition is reported as inactive: 2.81%. In the case of `CC(C)(C)c1ccc(OP(C)(=O)O)cc1`, the inhibition is reported as inactive: -1.14%. In the case of `CP(=O)(OC12CC3CC(CC(C3)C1)C2)OC12CC3CC(CC(C3)C1)C2`, the inhibition is reported as inactive: 3.83%. With `CCOC(=O)c1ccc(NP(C)(=O)Oc2ccc(Cl)cc2)cc1` (configuration not stated) the inhibition was inactive: -31.1%. In the case of `COc1ccc(OP(C)(=O)Nc2ccccc2Br)cc1` (configuration not stated), the inhibition is reported as inactive: 5.95%. `COc1ccccc1OP(C)(=O)Nc1ccc(C)c(C)c1` (configuration not stated) was tested, and the inhibition was inactive: -1.26%. For `Cc1cc(C)cc(OP(C)(=O)Nc2cccc(C(F)(F)F)c2)c1` (configuration not stated), the inhibition was inactive: 3.09%. With `CP(=O)(Nc1ccc(Cl)cc1Cl)Oc1ccccc1` (configuration not stated) the inhibition was inactive: -7.49%. With `CP(=O)(OCCOc1ccccc1)OCCOc1ccccc1` the inhibition was inactive: 1.96%. With `Cc1nc2ccc3ccccc3c2o1.O=[N+]([O-])c1cc([N+](=O)[O-])c(O)c([N+](=O)[O-])c1` the inhibition was inactive: 4.42%. In the case of `CN(C)CCOC(=O)C(O)(c1ccccc1)C1CCCC1` (configuration not stated), the inhibition is reported as inactive: -1.31%. For `COc1ccc(OP(C)(=O)Nc2ccccn2)cc1` (configuration not stated), the inhibition was inactive: 2.09%. In the case of `COc1ccccc1OP(C)(=O)Nc1ccc(Br)cc1` (configuration not stated), the inhibition is reported as inactive: 2%. With `CCc1ccc(OP(C)(=O)O)cc1` the inhibition was inactive: -2.91%. `CP(=O)(Nc1ccccn1)Oc1ccccc1` (configuration not stated) was tested, and the inhibition was inactive: 1.54%. With `COc1ccccc1OP(C)(=O)Nc1ccc(C)cc1C` (configuration not stated) the inhibition was inactive: -2.01%. In the case of `Cc1c(NP(C)(=O)Oc2ccc(C(C)C)cc2)c(=O)n(-c2ccccc2)n1C` (configuration not stated), the inhibition is reported as inactive: -1.39%. `O=[N+]([O-])c1cc([N+](=O)[O-])c(Nc2ccccn2)c([N+](=O)[O-])c1` was tested, and the inhibition was inactive: -1.78%. In the case of `CCN(CC)CCCOC(=O)C(O)(c1ccccc1)c1ccccc1`, the inhibition is reported as inactive: 0.87%. For `CC(C)(C)c1ccc(OP(C)(=O)Nc2ccc(SC(F)(F)F)cc2)cc1` (configuration not stated), the inhibition was inactive: -18.6%. In the case of `Cc1cccc(C)c1OP(C)(N)=O` (configuration not stated), the inhibition is reported as inactive: 2.78%. `O=[N+]([O-])c1ccc2c(c1)C=Nc1ccccc1O2` was tested, and the inhibition was inactive: 15.7%. With `COc1ccccc1OP(C)(=O)Nc1cc(Cl)ccc1C` (configuration not stated) the inhibition was inactive: 2.59%. For `Cc1cc(C)cc(OP(C)(N)=O)c1` (configuration not stated), the inhibition was inactive: -0.71%. With `CCOC(=O)c1ccc(NP(C)(=O)Oc2ccccc2)cc1` (configuration not stated) the inhibition was inactive: 17.7%. With `COc1ccccc1OP(C)(=O)Nc1ccc(C)cc1` (configuration not stated) the inhibition was inactive: 1.59%. With `COc1ccccc1OP(C)(=O)Nc1ccccc1` (configuration not stated) the inhibition was inactive: 11.8%. With `CP(=S)(Nn1cnnc1)Oc1ccccc1` (configuration not stated) the inhibition was inactive: 5.63%. For `CP(=O)(NC(=O)Nc1ccccc1)Oc1ccccc1` (configuration not stated), the inhibition was inactive: 7.36%. In the case of `CCc1ccc(OP(C)(=O)N2CCN(c3ccc([N+](=O)[O-])cc3)CC2)cc1` (configuration not stated), the inhibition is reported as inactive: 1.68%. For `Cc1cc(C)cc(OP(C)(=O)Nc2ccc(SC(F)(F)F)cc2)c1` (configuration not stated), the inhibition was inactive: -3%. `Cc1cccc(C)c1OP(C)(=O)Nc1ccc(SC(F)(F)F)cc1` (configuration not stated) was tested, and the inhibition was inactive: 3.54%. `CP(=O)(Nc1ccc(SC(F)(F)F)cc1)Oc1ccc(Cl)cc1` (configuration not stated) was tested, and the inhibition was inactive: 20.9%. `CP(=O)(Oc1ccccc1)OC(c1ccccc1)C(F)(F)F` (configuration not stated) was tested, and the inhibition was inactive: 1.27%. `CP(=O)(Nc1ccccn1)Oc1ccc(Cl)cc1` (configuration not stated) was tested, and the inhibition was inactive: 4.97%. For `CCOP(C)(=S)SCC(=O)NC(C)C(=O)O` (configuration not stated), the inhibition was inactive: -5.76%. With `CCOC(=O)c1ccc(NP(C)(=O)Oc2ccc(OC)cc2)cc1` (configuration not stated) the inhibition was inactive: -1.22%. For `O=[N+]([O-])c1cc([N+](=O)[O-])c(-n2nnc3ccccc32)c([N+](=O)[O-])c1`, the inhibition was inactive: -10.7%. In the case of `Cc1nc2ccc3ccccc3c2s1.O=[N+]([O-])c1cc([N+](=O)[O-])c(O)c([N+](=O)[O-])c1`, the inhibition is reported as inactive: 0.43%. `CCOC(=O)C(CC)C1=NC(C)(C)Cc2ccccc21.O=[N+]([O-])c1cc([N+](=O)[O-])c(O)c([N+](=O)[O-])c1` (configuration not stated) was tested, and the inhibition was inactive: 18.4%. For `CCCOc1ccc(NP(C)(=O)Oc2ccc(Cl)cc2)cc1` (configuration not stated), the inhibition was inactive: -6.53%. In the case of `CP(=O)(Nc1ccc(SC(F)(F)F)cc1)Oc1ccccc1` (configuration not stated), the inhibition is reported as inactive: 6.9%. `COc1ccccc1OP(C)(=O)Nc1c(C)cccc1C` (configuration not stated) was tested, and the inhibition was inactive: 1.19%. `CN1CCCCC1COC(=O)C1(O)c2ccccc2CCc2ccccc21` (configuration not stated) was tested, and the inhibition was inactive: 9.68%. In the case of `O=C(O)c1cccc(Nc2c([N+](=O)[O-])cc([N+](=O)[O-])cc2[N+](=O)[O-])c1`, the inhibition is reported as inactive: 17.3%. With `CC1=NCCc2c1[nH]c1ccccc21.O=[N+]([O-])c1cc([N+](=O)[O-])c(O)c([N+](=O)[O-])c1` the inhibition was inactive: -0.32%. For `Cc1cc(C)cc(OP(C)(=O)Nc2ccc(C)cc2C)c1` (configuration not stated), the inhibition was inactive: -1.47%. `CCOC(=O)c1ccc(NP(C)(=O)Oc2cc(C)cc(C)c2)cc1` (configuration not stated) was tested, and the inhibition was inactive: 4.8%. In the case of `COc1ccccc1OP(C)(=O)Nc1cccc(Br)c1` (configuration not stated), the inhibition is reported as inactive: -0.97%. `Cc1cc(C)cc(OP(C)(=O)Nc2ccccn2)c1` (configuration not stated) was tested, and the inhibition was inactive: -0.67%. In the case of `CP(=O)(Nc1cccc(Br)c1)Oc1ccccc1` (configuration not stated), the inhibition is reported as inactive: 3.01%. In the case of `Cc1ccc(C)c(NP(C)(=O)Oc2ccccc2)c1` (configuration not stated), the inhibition is reported as inactive: -7.95%.
